Ab-95 light chain CDR variants: yeast mating affinities

The measurements come from Engelhart et al. 2022 (doi:10.1038/s41597-022-01779-4) through the FLAb antibody collection.

Target: peptide PDVDLGDISGINAS, taken from heptad repeat 2 (HR2) of SARS-CoV-2 spike.

Parent scFv Ab-95: VH joined to VL by three GGGGS repeats. Changes lie in the light chain CDRs alone.
VH: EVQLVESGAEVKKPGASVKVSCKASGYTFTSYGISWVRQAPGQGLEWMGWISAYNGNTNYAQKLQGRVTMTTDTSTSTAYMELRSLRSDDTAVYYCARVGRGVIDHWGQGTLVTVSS
VL: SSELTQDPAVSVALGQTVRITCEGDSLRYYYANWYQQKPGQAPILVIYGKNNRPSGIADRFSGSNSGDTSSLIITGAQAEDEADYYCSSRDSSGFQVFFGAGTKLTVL

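The starting antibody came from a phage panning campaign against this peptide. Library AAYL52 holds single substitutions and randomly drawn double and triple substitutions in the CDRs. The scFvs were displayed on barcoded MATa yeast, the peptide on MATalpha yeast. After mating in shaken culture at 30 °C for 16 h, diploids were selected and their barcode pairs sequenced. Scores were corrected for input abundance and mapped to Kd with protein pairs of known affinity run in the same pool. The assay was run in three technical replicates.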

The parent's light chain CDRs are EGDSLRYYYAN, GKNNRPS, SSRDSSGFQVF; each variant's own CDRs replace them letter for letter.
Values are log10 of the apparent Kd in nM; lower means stronger binding.
Averages over replicates are reported, and they cover detected replicates only.
"no signal" means that the variant was in the library but no mating with the target was seen in any replicate; the authors take this as a sign of poor binding, and no number exists.

CDR-L1,CDR-L2,CDR-L3,mean log10 Kd (nM),replicates with signal
EGDSLRYYYAN,GKNNRPS,GSRLSSGIQVF,3.61,3 of 3
EGDSLRYYYAN,GKNNRPS,SSRDSSKFPVF,3.02,3 of 3
EGKSLRYYYAF,GKNNRPS,SSIDSSGFQVF,no signal,0 of 3
EGVSIRYYYAN,GKDNRPS,SSRDSSGFQVF,2.89,3 of 3
EGDSLRYYYAN,IKNNRPS,YSRDSSGFQVI,4.13,2 of 3
LGDSLRYYAAN,CKNNRPS,SSRDSSGFQVF,2.21,3 of 3
EGDSLRYYYAN,GKNNRES,TSRQSSGFQVF,3.98,2 of 3
EGDSLRYYYAN,GKNNRHS,SHRDSAGFQVF,3.26,2 of 3
EGDSLRYYCAN,GKNNRPI,SSRDSSGFQPF,3.41,1 of 3
EGDSLRYYYAN,GKNNRMS,SSRDCSGFQGF,3.44,1 of 3
ERDSLRYYYAN,GKNNRPG,SSRDSSGFQSF,4.36,2 of 3
EGDSARYYYAW,GKNNRPS,SSRDKSGFQVF,3.94,3 of 3
EGDSLRYYYAN,GKNNRPS,CSKDSSGFQVF,3.28,3 of 3
YGDSLRYYYAN,GKNNRPS,SRRDSSGFGVF,2.88,3 of 3
EIDSLRYYYAN,GDNNRPS,SSSDSSGFQVF,3.81,2 of 3
EGDSLRQYYAN,FKNNRPS,SSRDSSGFQQF,4.17,3 of 3
EQDSLRYYYAN,GKNNRYS,SSRDSSGFQQF,4.23,2 of 3
PGFSLRYYYAN,GKNNRPS,SSRDSSGFQTF,no signal,0 of 3
EGDSLRYYYAN,GKKNRPS,SSRDSSGIQVA,2.24,2 of 3
EADSLRYMYQN,GKNNRPS,SSRDSSGFQVF,3.20,2 of 3
EGQSLRYYYAF,RKNNRPS,SSRDSSGFQVF,4.83,1 of 3
ETDSLRYEYAN,GKNNRPS,SSRDASGFQVF,1.96,3 of 3
EGDSLRYYQAN,GKNARPS,SSRDSSGFQVF,1.15,3 of 3
EGDSIRVYYAN,GKNNRPS,SSRDSSVFQVF,4.10,1 of 3
EGDSLRYYYAN,GWNNRYS,SSLDSSGFQVF,3.45,1 of 3
EGDSARYYYAN,GKNNRPS,SSGDSSGFWVF,4.26,3 of 3
EGDSWRYYYAN,GQNNRPS,SSRDCSGFQVF,3.65,2 of 3
EGDSLRYYYAN,GMNLRPS,SSRDSSGFQVG,3.04,3 of 3
EWDSLRYYYAY,GKNNRPS,SSRDSSIFQVF,3.95,1 of 3
EGDSLRAYHAN,GKNNRPS,SSRDSSGIQVF,3.61,3 of 3
EGDYLRYGYAN,GKNNRPS,SSRDSSGFQVF,1.48,3 of 3
EGDSGRYYYAN,GKNNRPN,SSRDSSGFDVF,3.35,2 of 3
EGDSLRYYYAN,QCQNRPS,SSRDSSGFQVF,no signal,0 of 3
EQDSLRYYYFN,GKYNRPS,SSRDSSGFQVF,no signal,0 of 3
EGDSLWYYYAN,GKNNMPS,SSRDSSGFQVY,4.14,1 of 3
EGDSLRYYYAN,GKNNRSS,SSRDSSPFQVF,2.75,3 of 3
EGDYLRYYYAN,GKNNRPS,SSRDSSGGQVF,2.99,3 of 3
EGDGLRYYYAN,GKNNRPS,SSRDSSGFQKH,1.86,3 of 3
EGDSLRYYYAI,GKNNRPH,SSRDKSGFQVF,2.78,1 of 3
EGDSLDFYYAN,GKNNRPS,SHRDSSGFQVF,2.77,3 of 3
EGYSLRAYYAN,GKNNRPI,SSRDSSGFQVF,3.41,3 of 3
EGDSLEYYYAN,GSNNRPW,SSRDSSGFQVF,3.00,3 of 3
EGDSLSYYYAN,GKNTRPS,SSRDSSFFQVF,2.94,3 of 3
EGDSLRYYYAN,GKCNRSS,SSADSSGFQVF,no signal,0 of 3
EGDSLRYYYAN,GKNNRPS,CSRDSSGFQVK,2.84,3 of 3
EGDSLRYYYDM,GKNNRPS,SSRDSSEFQVF,3.35,1 of 3
EGDNLRYYYAN,GKNNRPS,SSYDSSGHQVF,2.64,1 of 3
EGDSLRYYYAN,GTNRRPS,SSRDSIGFQVF,3.98,2 of 3
EGDSDRYYLAN,GKNNQPS,SSRDSSGFQVF,4.19,2 of 3
EGDSMRYMYAN,GKNNRPS,SSNDSSGFQVF,3.56,3 of 3
EGRSLRYYYAN,GKNARPS,SVRDSSGFQVF,2.45,3 of 3
EGDSLRYYYAN,GPNNRPS,SSRDSKGFQVF,2.66,3 of 3
EGDSLRYYYAN,GVNNRPS,SSMDSPGFQVF,2.89,3 of 3
EGYDLRYYYAN,GKNNRPS,SSRDSSGFQHF,4.54,3 of 3
EGDSGRYYYAN,GKNNRPS,SSRLESGFQVF,4.93,1 of 3
EGDSLRYYYAN,GKNNRPS,RSRDSSGFQIA,no signal,0 of 3
EGISLRYYYAN,RKVNRPS,SSRDSSGFQVF,4.87,1 of 3
VGDSLIYYYAN,GDNNRPS,SSRDSSGFQVF,3.03,3 of 3
EGDSLRYYYAN,GKNNRPS,SHRDSSGDCVF,2.69,3 of 3
ENDSLRIYYAN,GKNNRPS,SSRDSEGFQVF,4.23,2 of 3
EGDSLRYTYAN,GHNNRPS,SSRDSSGFQVS,1.64,3 of 3
EGDSLRYYYAN,GKNNRKS,SSRDSSGNQVF,5.14,2 of 3
EGDSLRYYYAN,IKNNRPS,STKDSSGFQVF,3.31,1 of 3

Excerpt, the first 9 entries:

| CDR-L1 | CDR-L2 | CDR-L3 | mean log10 Kd (nM) | replicates with signal |
|---|---|---|---|---|
| EGDSLRYYYAN | GKNNRPS | GSRLSSGIQVF | 3.61 | 3 of 3 |
| EGDSLRYYYAN | GKNNRPS | SSRDSSKFPVF | 3.02 | 3 of 3 |
| EGKSLRYYYAF | GKNNRPS | SSIDSSGFQVF | no signal | 0 of 3 |
| EGVSIRYYYAN | GKDNRPS | SSRDSSGFQVF | 2.89 | 3 of 3 |
| EGDSLRYYYAN | IKNNRPS | YSRDSSGFQVI | 4.13 | 2 of 3 |
| LGDSLRYYAAN | CKNNRPS | SSRDSSGFQVF | 2.21 | 3 of 3 |
| EGDSLRYYYAN | GKNNRES | TSRQSSGFQVF | 3.98 | 2 of 3 |
| EGDSLRYYYAN | GKNNRHS | SHRDSAGFQVF | 3.26 | 2 of 3 |
| EGDSLRYYCAN | GKNNRPI | SSRDSSGFQPF | 3.41 | 1 of 3 |

Background: pairings of library AAYL52 with three empty control strains gave a value in 28% of cases (median 3.91, 5th percentile 2.90). Values in that range, when seen in few replicates, are hard to tell from nonspecific mating.
In this assay the parent's reference entry averaged 2.31; its copy inside this library read 2.25.